The values that follow come from PubChem BioAssay AID900 (National Center for Advancing Translational Sciences (NCATS), 2007).

Only a part is listed here, and it is no random draw. Calls of active or inactive are those of the source. Calls follow the shape of the dose curve; as a rule, active = well fitted inhibition curve with a large enough effect; inconclusive = small, poorly fitted or top-dose-only effect; inactive = flat fitted curve, though single readings scatter.

The experiment addresses Caspase-1 (Homo sapiens) (UniProt P29466). The experiment can be described thus: qHTS Assay for Allosteric/Competitive Inhibitors of Caspase-1.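 Also: plate controls were vehicle for no effect and no substrate for full effect.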 Particulars: Caspase-1 enzyme, Ac-WEHD-AFC fluorogenic rate; at 57.5 µM (top of the series). From the text: NIH Molecular Libraries Screening Centers Network [MLSCN]
NIH Chemical Genomics Center [NCGC]
PI Name: Dr. James Wells,
Dr. Enrique Perez-Paya, Dr.Janice Williams, Dr. Dennis Wolan, a person
The caspases (Cysteine Aspartyl Protease) comprise a related family of 14 dimeric proteases that are critical mediators of apoptosis (programmed cell death) and inflammation. The caspases represent an important class of drug targets for stroke, ischemia, cancer and inflammatory diseases. […] One goal of this project was to identify compounds that act as allosteric inhibitors via stabilizing the procaspase form of the enzyme. […]
The biochemical assay was configured using purified caspase 1 at a high enzyme concentration to promote formation of the homodimers and thus facilitate the identification of allosteric inhibitors. […] After initiation of the assay with substrate the plates were rapidly read using an automated robotic system (Kalypsys, Inc.) to maintain consistent timing. […]
Caspase 1 was prepared in buffer (50 mM HEPES pH 7.5, 50 mM KCl, 200 mM NaCl, 10 mM DTT, 0.1% CHAPS) at a concentration of 66.6 nM and 3 uL was dispensed to all wells using black solid Kalypsys 1536-well plates. […] The plates were then exposed using 405 nm excitation/520 nm emission filters for 4 sec and read at 20 sec intervals for 3 min. […]
As for `CN(CCCl)CCCl`, the activity change, negative = inhibition was inactive: -2.95%.

As to `O=[N+]([O-])C(Cl)(Cl)Cl`, the activity change, negative = inhibition is inactive: -3.61%.
